The list shows a part of the results, in another mix than the full data. Calls of active or inactive are those of the source.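 The calls were made as follows: active = activation above that plate's cutoff, the mean activation of tested compounds plus 3 SD (cut at about 6.6% in these data, passing the limit was not always enough); inactive = the rest.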

The chains behind the UniProt entries cited, without tags or fusion partners.
UniProt P30559, whole entry: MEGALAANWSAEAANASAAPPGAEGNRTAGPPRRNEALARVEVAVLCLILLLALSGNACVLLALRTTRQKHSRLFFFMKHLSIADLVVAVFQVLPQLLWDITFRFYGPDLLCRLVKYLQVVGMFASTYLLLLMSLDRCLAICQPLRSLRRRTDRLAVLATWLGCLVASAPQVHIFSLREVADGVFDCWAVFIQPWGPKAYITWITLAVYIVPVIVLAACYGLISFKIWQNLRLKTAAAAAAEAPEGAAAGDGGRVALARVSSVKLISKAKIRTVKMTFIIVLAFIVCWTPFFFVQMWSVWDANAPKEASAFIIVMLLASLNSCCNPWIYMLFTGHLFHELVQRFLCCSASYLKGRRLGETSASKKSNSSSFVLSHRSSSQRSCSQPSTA

The assay concerns the target Oxytocin receptor (Homo sapiens) (UniProt P30559). Description: enhancers of oxytocin-evoked OXTR calcium signal – fluorescence, CHO-OTR cells, Fluo-8 calcium, primary screen (AID 2445).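 Also: 100% uses oxytocin at 75 nM as the full agonist control.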 The following applies: Fluo-8 calcium fluorescence, potentiator mode, at 3 µM, hits give high values, 0% = oxytocin EC15, 100% = EC100.
Regarding `CCOC(=O)C(CC)C1=NC(C)(C)Cc2ccccc21.O=[N+]([O-])c1cc([N+](=O)[O-])c(O)c([N+](=O)[O-])c1` (centres undefined), the activation is inactive: -1.98%.

With `CC1=C2N=C(C=C3N=C(C(C)=C4[N-][C@@](C)([C@@H]5N=C1[C@](C)(CCC(=O)NC[C@@H](C)OP(=O)([O-])O[C@H]1[C@@H](O)[C@@H](n6cnc7cc(C)c(C)cc76)O[C@@H]1CO)[C@H]5CC(N)=O)[C@@](C)(CC(N)=O)[C@@H]4CCC(N)=O)[C@@](C)(CC(N)=O)[C@@H]3CCC(N)=O)C(C)(C)[C@@H]2CCC(N)=O.[C-]#N.[Co+3]`, the activation is inactive: -4.71%.

As for `O=[N+]([O-])c1cc([N+](=O)[O-])c(Nc2nnnn2CCO)c([N+](=O)[O-])c1`, the activation was inactive: -0.72%.

In the case of `CN1CCCCC1COC(=O)C1(O)c2ccccc2CCc2ccccc21` (centres undefined), the activation was inactive: 0.76%.

Turning to `COc1ccccc1OP(C)(=O)Nc1c(C)cccc1C` (centres undefined), the activation was inactive: -3.41%.

As for `CCCOc1ccc(NP(C)(=O)Oc2ccc(Cl)cc2)cc1` (centres undefined), the activation is inactive: -2.98%.

For the molecule `CP(=O)(Nc1ccc(SC(F)(F)F)cc1)Oc1ccccc1` (centres undefined), the activation was inactive: -8.42%.

As to `O=[N+]([O-])c1cc([N+](=O)[O-])c(-n2nnc3ccccc32)c([N+](=O)[O-])c1`, the activation is inactive: 4.2%.

With `O=[N+]([O-])c1cc([N+](=O)[O-])c(-c2cnn(-c3ccccc3)c2)c([N+](=O)[O-])c1`, the activation is inactive: -5.34%.

Turning to `Cc1nc2ccc3ccccc3c2s1.O=[N+]([O-])c1cc([N+](=O)[O-])c(O)c([N+](=O)[O-])c1`, the activation was inactive: -9.86%.

With `COc1ccccc1OP(C)(=O)Nc1cccc(Br)c1` (centres undefined), the activation is inactive: -1.8%.

On to `CCOC(=O)c1ccc(NP(C)(=O)Oc2cc(C)cc(C)c2)cc1` (centres undefined), for which the activation is inactive: -6.86%.

As to `Cc1cc(C)cc(OP(C)(=O)Nc2ccc(C)cc2C)c1` (centres undefined), the activation was inactive: -2.65%.

`Cc1ccc(C)c(NP(C)(=O)Oc2ccccc2)c1` (centres undefined): the activation is inactive: -6.02%.

Regarding `Cc1cc(C)cc(OP(C)(=O)Nc2ccccn2)c1` (centres undefined), the activation is inactive: -1.35%.

On to `CP(=O)(Nc1cccc(Br)c1)Oc1ccccc1` (centres undefined), for which the activation was inactive: 0.18%.

Turning to `O=C(O)c1cccc(Nc2c([N+](=O)[O-])cc([N+](=O)[O-])cc2[N+](=O)[O-])c1`, the activation is inactive: -19.8%.

On to `CC1=NCCc2c1[nH]c1ccccc21.O=[N+]([O-])c1cc([N+](=O)[O-])c(O)c([N+](=O)[O-])c1`, for which the activation is inactive: -1.84%.

Consider `O=[N+]([O-])c1cc([N+](=O)[O-])c(Nc2cccnc2)c([N+](=O)[O-])c1`, for which the activation was inactive: -13.2%.

Values taken from PubChem BioAssay AID2445 (The Scripps Research Institute Molecular Screening Center, 2010).
